Source: patent US11008317B2, “Triazolopyridine inhibitors of myeloperoxidase and/or EPX” (priority 2016, dated 2021)
Like-named read-outs stand apart in the source and are kept apart here.

By UniProt entry, the sequences of proteins in these tests, tags left out. Residues count along the entry.
UniProt P05164, 49-745 limits assumed: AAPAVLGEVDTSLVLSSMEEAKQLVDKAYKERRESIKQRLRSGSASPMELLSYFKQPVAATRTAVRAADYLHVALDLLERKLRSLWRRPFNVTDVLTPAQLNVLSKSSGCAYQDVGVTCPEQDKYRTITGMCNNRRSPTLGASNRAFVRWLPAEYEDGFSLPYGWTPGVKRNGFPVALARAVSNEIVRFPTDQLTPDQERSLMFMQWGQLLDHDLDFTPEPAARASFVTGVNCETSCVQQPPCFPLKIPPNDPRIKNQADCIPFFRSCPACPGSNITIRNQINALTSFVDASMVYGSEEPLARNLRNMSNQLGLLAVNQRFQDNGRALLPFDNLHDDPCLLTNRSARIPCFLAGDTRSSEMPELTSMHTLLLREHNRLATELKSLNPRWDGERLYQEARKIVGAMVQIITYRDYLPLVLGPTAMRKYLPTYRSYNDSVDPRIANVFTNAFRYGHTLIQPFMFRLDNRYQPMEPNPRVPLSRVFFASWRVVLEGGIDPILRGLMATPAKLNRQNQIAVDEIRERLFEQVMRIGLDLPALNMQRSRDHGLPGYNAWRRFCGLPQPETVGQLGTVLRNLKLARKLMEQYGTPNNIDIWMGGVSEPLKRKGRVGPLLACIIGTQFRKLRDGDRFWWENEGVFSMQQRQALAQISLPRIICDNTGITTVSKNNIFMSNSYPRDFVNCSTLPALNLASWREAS

Assays:
myeloperoxidase [1] = target: T1, myeloperoxidase (Homo sapiens, UniProt P05164); settings: read-out: Amplex Red Assay IC50 value; MPO peroxidation, potency range class
myeloperoxidase [2] = target: T1, myeloperoxidase; assay: MPO Chlorination Assay (APF Assay); settings: read-out: APF Assay IC50 value, potency range class

Nc1cc(C(CCNC23CC4CC(C2)CC(c2ccccc2)(C4)C3)c2ccccc2)c2nn[nH]c2n1 (centres unmarked)
IC50 (myeloperoxidase [1]): 101 to 999 nM | IC50 (myeloperoxidase [2]): 1 to 100 nM
